Measured values from publication PMC4919188 (Nature, 2016).

Chains of the proteins cited; added tags and fusions are not shown.
UniProt Q99250, whole entry: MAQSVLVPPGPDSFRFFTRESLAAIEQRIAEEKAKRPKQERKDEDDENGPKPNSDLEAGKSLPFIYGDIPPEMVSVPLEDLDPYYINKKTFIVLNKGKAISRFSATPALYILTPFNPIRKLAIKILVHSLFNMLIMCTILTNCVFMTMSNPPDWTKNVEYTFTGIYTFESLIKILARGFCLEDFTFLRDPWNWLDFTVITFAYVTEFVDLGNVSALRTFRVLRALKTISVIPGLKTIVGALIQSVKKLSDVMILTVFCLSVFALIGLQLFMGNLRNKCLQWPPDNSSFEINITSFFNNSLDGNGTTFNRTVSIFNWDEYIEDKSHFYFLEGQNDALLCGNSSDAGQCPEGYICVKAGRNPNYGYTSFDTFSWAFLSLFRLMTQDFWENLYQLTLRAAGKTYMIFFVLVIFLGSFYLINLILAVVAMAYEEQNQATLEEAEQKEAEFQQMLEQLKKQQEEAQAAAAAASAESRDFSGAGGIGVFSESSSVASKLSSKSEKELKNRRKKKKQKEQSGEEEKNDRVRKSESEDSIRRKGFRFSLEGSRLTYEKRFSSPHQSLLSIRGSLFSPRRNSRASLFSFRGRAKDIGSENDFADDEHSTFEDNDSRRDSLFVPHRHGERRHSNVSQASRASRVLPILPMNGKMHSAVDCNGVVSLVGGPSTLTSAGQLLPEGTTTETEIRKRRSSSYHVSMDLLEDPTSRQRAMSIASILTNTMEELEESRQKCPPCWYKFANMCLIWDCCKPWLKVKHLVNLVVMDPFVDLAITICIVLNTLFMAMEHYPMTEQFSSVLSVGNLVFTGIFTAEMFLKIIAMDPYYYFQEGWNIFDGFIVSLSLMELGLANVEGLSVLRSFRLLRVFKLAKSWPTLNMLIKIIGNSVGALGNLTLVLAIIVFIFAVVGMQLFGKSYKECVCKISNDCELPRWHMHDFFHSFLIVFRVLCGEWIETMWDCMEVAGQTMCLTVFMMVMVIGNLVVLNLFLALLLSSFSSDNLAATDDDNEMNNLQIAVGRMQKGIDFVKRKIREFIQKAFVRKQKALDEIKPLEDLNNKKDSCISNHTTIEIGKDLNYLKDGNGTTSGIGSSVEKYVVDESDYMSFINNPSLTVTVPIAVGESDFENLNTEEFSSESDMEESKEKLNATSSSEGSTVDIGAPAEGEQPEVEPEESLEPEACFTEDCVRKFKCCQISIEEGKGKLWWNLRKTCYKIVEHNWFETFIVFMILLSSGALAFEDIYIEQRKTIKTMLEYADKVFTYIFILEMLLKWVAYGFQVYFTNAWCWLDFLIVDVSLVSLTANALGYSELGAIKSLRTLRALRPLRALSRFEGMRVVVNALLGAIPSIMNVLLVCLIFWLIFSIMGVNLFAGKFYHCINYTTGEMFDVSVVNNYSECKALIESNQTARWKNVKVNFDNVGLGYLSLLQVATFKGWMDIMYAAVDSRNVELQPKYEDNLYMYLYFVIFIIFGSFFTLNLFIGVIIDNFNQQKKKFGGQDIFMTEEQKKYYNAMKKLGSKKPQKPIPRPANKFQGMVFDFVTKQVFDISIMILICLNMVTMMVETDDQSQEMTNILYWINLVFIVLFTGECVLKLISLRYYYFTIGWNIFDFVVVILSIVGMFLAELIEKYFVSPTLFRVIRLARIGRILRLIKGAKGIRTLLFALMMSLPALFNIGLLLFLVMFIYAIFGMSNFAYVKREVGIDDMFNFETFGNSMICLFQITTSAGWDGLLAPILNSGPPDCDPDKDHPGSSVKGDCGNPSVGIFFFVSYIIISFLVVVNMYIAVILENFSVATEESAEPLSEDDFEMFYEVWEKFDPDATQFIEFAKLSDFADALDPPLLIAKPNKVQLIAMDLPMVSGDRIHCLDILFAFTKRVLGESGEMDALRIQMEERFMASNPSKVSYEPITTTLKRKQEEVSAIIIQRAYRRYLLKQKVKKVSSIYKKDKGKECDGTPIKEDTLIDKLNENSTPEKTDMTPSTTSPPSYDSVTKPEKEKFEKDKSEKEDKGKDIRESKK
UniProt Q9NY46, whole entry S208D: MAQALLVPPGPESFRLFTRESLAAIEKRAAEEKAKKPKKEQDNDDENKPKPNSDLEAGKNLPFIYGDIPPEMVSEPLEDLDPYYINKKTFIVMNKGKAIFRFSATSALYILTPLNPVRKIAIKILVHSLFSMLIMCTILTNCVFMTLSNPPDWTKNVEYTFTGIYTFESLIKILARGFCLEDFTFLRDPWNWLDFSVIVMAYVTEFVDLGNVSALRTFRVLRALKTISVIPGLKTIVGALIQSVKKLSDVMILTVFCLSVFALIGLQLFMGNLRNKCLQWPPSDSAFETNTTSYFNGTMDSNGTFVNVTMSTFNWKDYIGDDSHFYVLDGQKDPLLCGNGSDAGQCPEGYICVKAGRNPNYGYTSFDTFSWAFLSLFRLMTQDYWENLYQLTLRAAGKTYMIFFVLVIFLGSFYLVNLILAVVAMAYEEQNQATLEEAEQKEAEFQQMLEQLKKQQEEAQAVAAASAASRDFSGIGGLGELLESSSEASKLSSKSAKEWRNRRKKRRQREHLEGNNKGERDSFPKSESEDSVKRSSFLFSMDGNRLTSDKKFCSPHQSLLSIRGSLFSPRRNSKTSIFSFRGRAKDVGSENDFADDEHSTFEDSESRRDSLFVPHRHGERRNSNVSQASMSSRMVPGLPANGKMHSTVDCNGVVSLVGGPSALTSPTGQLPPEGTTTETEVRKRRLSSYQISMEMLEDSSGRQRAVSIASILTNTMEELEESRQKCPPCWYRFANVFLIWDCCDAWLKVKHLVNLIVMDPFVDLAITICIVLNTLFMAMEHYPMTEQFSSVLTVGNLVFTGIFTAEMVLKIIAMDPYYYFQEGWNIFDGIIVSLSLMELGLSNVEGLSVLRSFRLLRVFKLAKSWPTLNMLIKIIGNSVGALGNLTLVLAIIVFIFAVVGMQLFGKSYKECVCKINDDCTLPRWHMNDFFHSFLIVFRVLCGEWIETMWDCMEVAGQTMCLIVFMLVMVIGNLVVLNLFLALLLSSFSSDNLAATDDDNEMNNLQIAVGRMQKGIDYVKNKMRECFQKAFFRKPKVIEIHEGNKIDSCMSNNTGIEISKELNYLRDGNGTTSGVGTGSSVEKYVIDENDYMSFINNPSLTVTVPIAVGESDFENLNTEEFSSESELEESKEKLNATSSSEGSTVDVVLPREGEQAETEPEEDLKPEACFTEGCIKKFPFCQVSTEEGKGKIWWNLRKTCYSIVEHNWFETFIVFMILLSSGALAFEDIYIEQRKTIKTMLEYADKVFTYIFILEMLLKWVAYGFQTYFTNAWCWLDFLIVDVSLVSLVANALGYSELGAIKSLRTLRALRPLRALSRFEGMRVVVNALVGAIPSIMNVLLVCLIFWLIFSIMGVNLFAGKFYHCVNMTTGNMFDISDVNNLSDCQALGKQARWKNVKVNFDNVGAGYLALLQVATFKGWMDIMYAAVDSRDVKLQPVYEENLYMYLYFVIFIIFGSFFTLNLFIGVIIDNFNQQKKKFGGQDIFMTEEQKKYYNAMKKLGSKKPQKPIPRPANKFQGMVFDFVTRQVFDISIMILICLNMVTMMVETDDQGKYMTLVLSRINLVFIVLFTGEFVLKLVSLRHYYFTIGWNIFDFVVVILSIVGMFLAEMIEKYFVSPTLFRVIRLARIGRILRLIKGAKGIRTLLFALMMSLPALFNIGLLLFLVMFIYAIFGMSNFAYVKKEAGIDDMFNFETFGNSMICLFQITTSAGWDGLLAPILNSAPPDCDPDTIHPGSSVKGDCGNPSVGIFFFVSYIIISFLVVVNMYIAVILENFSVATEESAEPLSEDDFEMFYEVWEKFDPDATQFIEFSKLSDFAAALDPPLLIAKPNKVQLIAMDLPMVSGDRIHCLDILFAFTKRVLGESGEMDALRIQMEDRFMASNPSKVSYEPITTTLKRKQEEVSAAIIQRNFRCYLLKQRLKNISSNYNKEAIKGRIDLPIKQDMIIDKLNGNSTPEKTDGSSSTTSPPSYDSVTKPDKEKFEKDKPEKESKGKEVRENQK

What was measured:
hNav1.2 = hNav1.2 (Homo sapiens, UniProt Q99250); format: biochemical
hNav1.3 = hNav1.3 (Homo sapiens, UniProt Q9NY46); format: biochemical
injected paw = settings: Hm1a intraplantar, mouse

CC(C)C[C@@H]1NC(=O)[C@H](Cc2ccc(O)cc2)NC(=O)[C@H](CCCNC(=N)N)NC(=O)[C@@H](NC(=O)[C@@H](N)CCC(=O)O)CSSC[C@@H]2NC(=O)[C@@H]3CSSC[C@@H](C(=O)N[C@@H](C)C(=O)N[C@@H](Cc4c[nH]c5ccccc45)C(=O)N[C@@H](CC(=O)O)C(=O)NCC(=O)N[C@H](C(=O)N[C@@H](Cc4ccccc4)C(=O)N[C@@H](CO)C(=O)O)[C@@H](C)O)NC(=O)[C@H](Cc4ccc(O)cc4)NC(=O)[C@H](CCCCN)NC(=O)[C@H](Cc4c[nH]c5ccccc45)NC(=O)[C@H](CC(=O)O)NC(=O)[C@H](CO)NC(=O)[C@H](CCCNC(=N)N)NC(=O)[C@H](CSSC[C@H](NC(=O)CNC(=O)CNC(=O)[C@H](Cc4ccccc4)NC1=O)C(=O)N[C@@H](CO)C(=O)N[C@@H](CO)C(=O)N[C@@H]([C@@H](C)O)C(=O)N[C@@H](CO)C(=O)N[C@@H](CC(=O)O)C(=O)N3)NC(=O)[C@H](CO)NC(=O)[C@H](CC(C)C)NC(=O)[C@H](Cc1c[nH]cn1)NC(=O)[C@H](CCCCN)NC2=O [Hm1a]
EC50 (hNav1.2): 236 nM
EC50 (hNav1.3): 220 nM
swelling or plasma extravasation of the injected paw (injected paw): did not produce swelling or plasma extravasation
